Target: full length GPI-linked D1D2D3 (cell surface uPAR) (human) (UniProt Q03405)
Test: cell-based or functional assay

ATF, the N-terminal fragment of uPA (from UniProt P00749 21-155) (ligand)
% induced migration (ATF) of monocytes, no antibody: 339% | Migration fold increase, no antibody: 3.4 fold

Source: patent publication US20090202550A1 (WILEX, published 2009)
